According to patent US6376644B1, “Biodegradable polymers chain-extended by phosphates, compositions, articles and methods for making and using the same” (Guilford Pharmaceuticals, Inc., priority 1997, dated 2002):

Details: pH 7.4

For “Poly(L-lactide-co-ethyl-phosphate) [P(LAEG-EOP)]”, the “Degradation profile (weight loss and molecular weight change)” value was “favorable degradation profiles”.
